The values that follow are results of earlier work, collected in article PMC1769465, “Toxicity Assays in Nanodrops Combining Bioassay and Morphometric Endpoints” (PLoS ONE, 2007).

In the data set the test system is HeLa cells. Particulars: read-out: LC50; HeLa cells engineered with the same constructs; cited from earlier work.

As for Sodium arsenate, the CC50 is 5 µM.
